Experimental findings from article PMC6163981, “Novel and Selective Rhipicephalus microplus Triosephosphate Isomerase Inhibitors with Acaricidal Activity” (Veterinary Sciences, 2018) are described below.

By UniProt entry, the sequences of proteins in these tests, tags left out.
UniProt P60174, whole entry, looked up: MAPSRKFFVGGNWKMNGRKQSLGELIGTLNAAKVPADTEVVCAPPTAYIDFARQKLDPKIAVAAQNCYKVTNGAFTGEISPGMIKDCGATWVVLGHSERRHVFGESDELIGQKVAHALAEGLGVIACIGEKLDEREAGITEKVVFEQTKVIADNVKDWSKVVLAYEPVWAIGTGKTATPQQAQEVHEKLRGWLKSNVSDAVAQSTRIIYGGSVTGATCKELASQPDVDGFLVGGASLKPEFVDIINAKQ

Several values for one entry are separate records, joined by “and”; a condition that tells them apart may be missing. Equal values may be shown once.

The % Inhibition is the relative decrease from the control value, in per cent. Lower therefore signals little suppression. The cell viability is a read-out of living cells in per cent, often relative to untreated cells. Broadly, the IC50 is the concentration that gives 50% inhibition.

Test [1] concerns the target Homo sapiens TIM (HsTIM, HmTIM [sic] in Table 1) (Homo sapiens, UniProt P60174). Kind of test: Human TIM inhibition (selectivity). It counts as biochemical.
The test system of test [2] is BME26 embryonic cells. Kind of test: MTT viability assay on BME26 embryonic cells. It counts as cell-based, Rhipicephalus microplus. Background: Tetrazolium dyes change colour on reduction, which living cells bring about.
For test [3], the system named is Rhipicephalus microplus fully engorged females. Kind of test: Adults immersion test.
Test [4] relates to Rhipicephalus microplus partially engorged female ticks. Kind of test: Injection of inhibitor into partially engorged females during artificial capillary feeding.

Take `O=[N+]([O-])c1cccc2no[n+]([O-])c12`: in test [1], the “% Inhibition at 100 µM HmTIM” value stood at 0%. Also, the “cell viability at 100 µM” value in test [2] (24 h, 100 µM) worked out at 20%. The IC50 in test [2] (read-out: IC50 in BME26 cells (In vitro anti-R. microplus), 24 h) is 38 µM and 30 µM. The entries for the “Larval Total Weight” value in test [3] (500 ppm) and in test [3] (2000 ppm) were 60 ± 39 mg and 63 ± 33 mg, respectively. Also, the “reduction of the eclosion rate compared to vehicle” value in test [3] (500 ppm and 2000 ppm) was determined as 16%. For the same compound, in test [4] (2 µL of 1 mM in DMSO injected), the Eclosion entry is “no egg hatching”. The Oviposition/Total entry in test [4] (2 µL of 1 mM in DMSO injected (2 nmol/tick), females that did not lay eggs considered dead) is given as “NO 0/13”.
